{"source": "PubChem BioAssay AID902", "about": "(National Center for Advancing Translational Sciences (NCATS), 2007)", "note": "This is a selection; strong and weak results do not stand in their true shares. Inconclusive results are not listed. Calls of active or inactive are those of the source. The call rests on the fitted dose curve; in most records, active means well fitted cell-killing curve with a large enough effect; inconclusive means small, poorly fitted or top-dose-only effect; inactive means no such curve, though single readings can be large or run the other way. On the % scale 0 is the no-effect control and ±100 the full control effect.", "data": [{"assay": "qHTS Screen for Compounds that Selectively Target Cancer Cells with p53 Mutations: Cytotoxicity of p53ts Cells at the Nonpermissive Temperature; further: nearly all actives have a fitted effect of over 55% in size", "settings": "H1299-p53A138V viability at 39C, ATP luminescence, 24 h; at 46.1 µM (top of the series) unless noted", "values": [{"molecule": "O=P(Nc1nccs1)(c1ccccc1)c1ccccc1", "activity change, negative = cell killing": "inactive: -1.34%"}, {"molecule": "CC(C)C(=O)NC(Sc1ccccc1)C(Cl)(Cl)Cl", "note": "(stereo unspecified)", "activity change, negative = cell killing": "inactive: 11.7%"}, {"molecule": "c1nnnn1CCn1cnnn1", "activity change, negative = cell killing": "inactive: 8.01%"}, {"molecule": "CN1CCC[C@H](OC(=O)C(c2ccccc2)c2ccccc2)C1", "activity change, negative = cell killing": "inactive: 5.4% [at 9.22 µM]"}, {"molecule": "C[C@@H](O)COc1ccc([As](=O)(O)O)cc1N", "activity change, negative = cell killing": "inactive: -6.91% [at 9.22 µM]"}, {"molecule": "Cc1cc([N+](=O)[O-])cc([N+](=O)[O-])c1O", "activity change, negative = cell killing": "inactive: -21.1%"}, {"molecule": "[N-]=[N+]=Nc1ccc([As](=O)(O)O)cc1", "activity change, negative = cell killing": "inactive: 32.1% [at 9.22 µM]"}, {"molecule": "O=C(OC1CN2CCC1CC2)c1cccc(Cl)c1", "note": "(stereo unspecified)", "activity change, negative = cell killing": "inactive: -1.17%"}, {"molecule": "COC(=O)c1cc2c(s1)N=C(c1ccccc1)N(C)P2(=O)N1CCOCC1", "note": "(stereo unspecified)", "activity change, negative = cell killing": "inactive: 6.39%"}, {"molecule": "O=P1(Nc2nc3ccc(Cl)cc3s2)COc2ccccc2O1", "note": "(stereo unspecified)", "activity change, negative = cell killing": "inactive: -16.9%"}, {"molecule": "CN1CCCC(OC(=O)C(c2ccccc2)c2ccccc2)C1", "note": "(stereo unspecified)", "activity change, negative = cell killing": "inactive: 6.63%"}, {"molecule": "O=[N+]([O-])c1ccc(C[As](=O)(O)O)cc1", "activity change, negative = cell killing": "inactive: 2.12% [at 9.22 µM]"}, {"molecule": "NCC[C@@H](N)CSP(=O)(O)O", "activity change, negative = cell killing": "inactive: -5.07% [at 9.22 µM]"}, {"molecule": "Cc1cc(SC(NC(=O)c2ccc(F)cc2)C(Cl)(Cl)Cl)ncn1", "note": "(stereo unspecified)", "activity change, negative = cell killing": "inactive: -16.8%"}, {"molecule": "[N-]=[N+]=NCC(O)CN=[N+]=[N-]", "note": "(stereo unspecified)", "activity change, negative = cell killing": "inactive: -0.772% [at 9.22 µM]"}, {"molecule": "C(Cc1nn[nH]n1)c1nn[nH]n1", "activity change, negative = cell killing": "inactive: -2.19% [at 9.22 µM]"}, {"molecule": "CCc1nc2c(n1)c1c(non1O)c1c2no[n+]1[O-]", "activity change, negative = cell killing": "inactive: -8.78%"}, {"molecule": "O=C(CO)Nc1ccc([As](=O)(O)O)cc1", "activity change, negative = cell killing": "inactive: -0.145% [at 9.22 µM]"}, {"molecule": "COP1(=S)c2c(C)nn(CCC#N)c2N=C(c2ccc(F)cc2)N1C", "note": "(stereo unspecified)", "activity change, negative = cell killing": "inactive: -5.11%"}, {"molecule": "O=C(COc1ccccc1)OC1CN2CCC1CC2", "note": "(stereo unspecified)", "activity change, negative = cell killing": "inactive: 9.63%"}, {"molecule": "O=C(O)[C@@H](O)c1ccc([As](=O)(O)O)cc1", "activity change, negative = cell killing": "inactive: -9.02% [at 9.22 µM]"}, {"molecule": "CCC(C)N(CC(C)C)C(=S)SC(NC(C)=O)C(Cl)(Cl)Cl", "note": "(stereo unspecified)", "activity change, negative = cell killing": "inactive: -13.1%"}, {"molecule": "Cc1cc(SC(NC(=O)c2ccccc2)C(Cl)(Cl)Cl)nc(C(C)C)n1", "note": "(stereo unspecified)", "activity change, negative = cell killing": "inactive: -0.433%"}, {"molecule": "ClCCSc1nnc(-c2cccnc2)o1", "activity change, negative = cell killing": "inactive: -7.17%"}, {"molecule": "O=[As]c1ccc(S(=O)(=O)NCCO)cc1", "note": "(stereo unspecified)", "activity change, negative = cell killing": "inactive: 9.96% [at 9.22 µM]"}, {"molecule": "[N-]=[N+]=NCC(N)=O", "activity change, negative = cell killing": "inactive: -1.56% [at 9.22 µM]"}, {"molecule": "Cc1c2c(nc3ccccc13)SC(C(Cl)Cl)C2", "note": "(stereo unspecified)", "activity change, negative = cell killing": "inactive: 18.5%"}, {"molecule": "O=C(OC1CN2CCC1CC2)C12CC3CC(CC(C3)C1)C2", "note": "(stereo unspecified)", "activity change, negative = cell killing": "inactive: 3.85%"}, {"molecule": "NC(=O)Nc1cc([As](=O)(O)O)cc(I)c1O", "activity change, negative = cell killing": "inactive: 0.764% [at 9.22 µM]"}, {"molecule": "NS(=O)(=O)Cc1ccc([As](=O)(O)O)cc1", "activity change, negative = cell killing": "inactive: -1.62% [at 9.22 µM]"}, {"molecule": "O=C(CC(=O)c1ccccc1)O[C@H]1CN2CCC1CC2", "activity change, negative = cell killing": "inactive: -1.11% [at 9.22 µM]"}, {"molecule": "CN(C(=O)Cc1ccc(Cl)c(Cl)c1)[C@@H]1CC[C@@]2(CCCO2)C[C@H]1N1CCCC1", "activity change, negative = cell killing": "inactive: -9.32%"}, {"molecule": "CCOP1(=S)c2c(C)nn(CCC#N)c2N=C(c2ccccc2F)N1C", "note": "(stereo unspecified)", "activity change, negative = cell killing": "inactive: 2.88%"}, {"molecule": "O=[As](O)(O)c1ccc([As](=O)(O)O)cc1", "activity change, negative = cell killing": "inactive: -2.38% [at 9.22 µM]"}, {"molecule": "CCOP1(=S)c2c(C)nn(CCC#N)c2N=C(c2ccc(F)cc2)N1C", "note": "(stereo unspecified)", "activity change, negative = cell killing": "inactive: -4.13%"}, {"molecule": "Cc1nn(-c2ccccc2)c2c1P(=O)(N1CCOCC1)N(C)C(c1ccccc1)=N2", "note": "(stereo unspecified)", "activity change, negative = cell killing": "inactive: 2.75%"}, {"molecule": "O=P1(Nc2ncccn2)COc2ccccc2OC1", "activity change, negative = cell killing": "inactive: 5.79%"}, {"molecule": "O=P1(Nc2ccc(Br)cn2)COc2ccccc2OC1", "activity change, negative = cell killing": "inactive: 2.25%"}, {"molecule": "O=P1(Nc2ccccn2)COc2ccccc2OC1", "activity change, negative = cell killing": "inactive: 9.09%"}, {"molecule": "CN(CCCl)Cc1cc(Cl)c(NC2=NCCN2)c(Cl)c1", "activity change, negative = cell killing": "inactive: 10.4%"}, {"molecule": "Clc1n[nH]nc1-c1nn[nH][15n]1", "activity change, negative = cell killing": "inactive: 10%"}]}]}
